Experimental data reported in BindingDB's records for doi:10.1021/jm00210a006 (1979).

Amino acid sequences for entries named in this document (tags omitted). Residues count along the entry.
UniProt P00747, 97-580 limits assumed: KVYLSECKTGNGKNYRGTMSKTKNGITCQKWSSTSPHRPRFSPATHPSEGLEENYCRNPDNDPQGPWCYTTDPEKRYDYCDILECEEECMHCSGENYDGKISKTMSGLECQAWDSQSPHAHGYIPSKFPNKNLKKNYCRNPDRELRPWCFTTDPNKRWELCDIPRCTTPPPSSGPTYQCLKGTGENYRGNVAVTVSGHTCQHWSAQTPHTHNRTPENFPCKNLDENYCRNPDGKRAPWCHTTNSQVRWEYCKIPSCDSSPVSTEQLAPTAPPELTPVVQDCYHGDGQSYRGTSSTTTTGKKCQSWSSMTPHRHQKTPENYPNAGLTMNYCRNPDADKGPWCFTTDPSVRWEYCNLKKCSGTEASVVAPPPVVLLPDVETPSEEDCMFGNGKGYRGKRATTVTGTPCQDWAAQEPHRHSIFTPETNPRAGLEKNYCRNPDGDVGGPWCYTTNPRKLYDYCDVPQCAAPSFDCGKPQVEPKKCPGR
UniProt P00747, 581-810 limits assumed: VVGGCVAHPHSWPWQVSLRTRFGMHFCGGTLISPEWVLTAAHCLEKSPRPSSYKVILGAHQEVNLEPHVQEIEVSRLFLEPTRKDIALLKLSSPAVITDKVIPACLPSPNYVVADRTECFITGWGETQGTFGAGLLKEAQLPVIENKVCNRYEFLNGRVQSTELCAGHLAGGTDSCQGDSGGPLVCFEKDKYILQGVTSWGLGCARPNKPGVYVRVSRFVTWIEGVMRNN

Target: Plasminogen (Homo sapiens, UniProt P00747)
Experiment: Competitive inhibition of esterase activity of human plasmin assessed as assessed as decrease in p-nitrophenol production using N-Z-L-Tyr-ONp as substrate by spectrophotometric analysis

Ki: 2510 µM and 316 µM and 500 µM and 398 µM
SMILES: N=C(N)c1ccccc1 [Benzamidine (Protonated)]

Several values for one entry are separate records, joined by “and”; a condition that tells them apart may be missing. Equal values may be shown once.
